Results reported in patent EP0866075B1, “Method to treat microbial infections by uncoupling of phosphotransferase system and appropriate agents therefor” (Arpida AG,, priority 1997, dated 1998).

Target: T1, enzyme I (Escherichia coli, UniProt P08839)
T1 construct: 3 µM each of purified HPr and enzyme I (Mao et al., 1995); made in house
Test: biochemical
Design: species or system E. coli
Conditions: peptides from support-based combinatorial libraries; 30 min at 37°C, HPr rate limiting; read-out: inhibition IC50
Source text: Fig. 2. Assays for the screening, selection and characterization of inhibitory compounds from combinatorial libraries. Reaction products that can be determined experimentally are boxed. The inhibitory compound X can be in soluble form, immobilized on a filamentous phage, or bound to a microtiter well. The transporter for GlcNAc (shaded in grey) contains the IIA, IIB and IIC functional units as domains of a single polypeptide chain. • (a) Binding of Enzyme I to immobilized ligands, e.g. filamentous phages from a phage display library or synthetic peptides from a combinatorial peptide library was detected using [^1251]-Enzyme I and autoradiography. • (b) Phosphorylation by Enzyme I. To identify peptides and filamentous phages displaying a peptide which can be phosphorylated by Enzyme 1, support based peptide libraries and immobilized peptide-displaying phages were incubated over night with enzyme I in the presence of [^32P]phosphoenolpyruvate, and the phosphorylated species were detected with a PhosphorImager. […] The assay can be performed in microtiter plates and quantitated with a microplate photoreader. […] The enzyme I-specific phosphatase activity of soluble compounds can be detected from the pyruvate burst. The rate of pyruvate formation is monitored with lactate dehydrogenase and NADH. […]

SMILES | IC50 [mM]
CC(=O)N[C@@H](Cc1c[nH]c2ccccc12)C(=O)N[C@@H](Cc1c[nH]cn1)C(=O)N[C@@H](CCCCN)C(=O)N[C@@H](CCCNC(=N)N)C(=O)O [compound 13, Ac-WH KR] | 5.8
N=C(N)NCCC[C@H](NC(=O)[C@H](CCCCN)NC(=O)[C@H](Cc1c[nH]cn1)NC(=O)[C@@H](N)Cc1c[nH]c2ccccc12)C(=O)O [compound 12, W H KR] | 4.9
